Measurements taken from PubChem BioAssay AID368 (University of Pittsburgh Molecular Library Screening Center, 2006).
This is a selection; strong and weak results do not stand in their true shares. Some results for these compounds are left out of this collection, so the calls shown say nothing about other tests. Active and inactive are the calls of the source. Rule as the data show it: active = inhibition above about 50%; inactive = the rest.

Amino acid sequences for entries named in this document (tags omitted).
UniProt P30305, whole entry: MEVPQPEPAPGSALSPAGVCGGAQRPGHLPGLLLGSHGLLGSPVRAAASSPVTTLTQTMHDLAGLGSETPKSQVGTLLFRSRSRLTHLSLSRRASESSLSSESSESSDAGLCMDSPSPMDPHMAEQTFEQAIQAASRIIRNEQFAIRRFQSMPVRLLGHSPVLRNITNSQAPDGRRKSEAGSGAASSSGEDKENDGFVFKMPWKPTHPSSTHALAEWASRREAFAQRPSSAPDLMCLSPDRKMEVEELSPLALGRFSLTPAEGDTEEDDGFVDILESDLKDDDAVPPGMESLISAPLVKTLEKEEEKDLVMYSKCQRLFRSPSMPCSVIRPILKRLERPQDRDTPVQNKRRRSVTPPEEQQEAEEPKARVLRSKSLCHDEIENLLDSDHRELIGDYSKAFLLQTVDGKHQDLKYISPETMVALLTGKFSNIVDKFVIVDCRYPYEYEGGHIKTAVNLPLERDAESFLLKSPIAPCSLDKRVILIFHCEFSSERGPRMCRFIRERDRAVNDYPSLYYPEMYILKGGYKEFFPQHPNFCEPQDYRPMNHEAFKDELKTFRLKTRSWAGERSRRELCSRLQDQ

target: M-phase inducer phosphatase 2 (Homo sapiens) (UniProt P30305); experiment: inhibitors of Cdc25B phosphatase catalytic domain, primary screen, biochemical, OMFP fluorescence (AID 368); conditions: recombinant Cdc25B, OMFP fluorescence Ex485/Em525; hits give high values;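 compounds tested at 10 µM final in the well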

Question: How did the inhibition turn out when CN(C)c1cccc(C(=O)NCC2(N(C)C)CCCCC2)c1 was run?
Answer: inactive: -6.06%

Question: For O=C(OC1CN2CCC1CC2)C(CO)(c1ccccc1)c1ccccc1 (configuration not stated), which inhibition is on record?
Answer: inactive: -10.2%
